From article PMC3479967, “Drug-Drug Interactions Potential of Icariin and Its Intestinal Metabolites via Inhibition of Intestinal UDP-Glucuronosyltransferases” (Evidence-based Complementary and Alternative Medicine : eCAM, 2012)

Molecular target: T1, UGT1A4 (Homo sapiens, UniProt P22310)
T1 construct: purchased BD Gentest Corp. (Woburn, MA, USA); host or cells: baculovirus-infected insect cells
T1 sequence (P22310 29-534): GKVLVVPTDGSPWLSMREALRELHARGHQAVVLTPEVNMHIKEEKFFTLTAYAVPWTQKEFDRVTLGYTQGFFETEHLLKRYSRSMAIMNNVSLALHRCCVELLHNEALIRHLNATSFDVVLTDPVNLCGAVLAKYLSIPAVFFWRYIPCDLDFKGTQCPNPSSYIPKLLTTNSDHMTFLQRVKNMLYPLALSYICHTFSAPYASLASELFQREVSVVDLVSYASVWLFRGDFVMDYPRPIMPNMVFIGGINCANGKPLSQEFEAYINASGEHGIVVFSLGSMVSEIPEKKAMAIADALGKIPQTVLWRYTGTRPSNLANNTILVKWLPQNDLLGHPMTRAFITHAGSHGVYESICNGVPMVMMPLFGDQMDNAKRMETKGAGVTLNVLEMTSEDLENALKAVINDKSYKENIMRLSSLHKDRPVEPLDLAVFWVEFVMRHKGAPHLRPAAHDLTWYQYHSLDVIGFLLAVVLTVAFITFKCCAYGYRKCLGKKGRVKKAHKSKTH
Assay: Inhibition of recombinant UGT1A4 activity (TFP glucuronidation)
Format: biochemical
Protocol: TFP was used as the substrate for UGT1A4. Trifluoperazine glucuronide (TFPG) formation was measured using a modification of the method reported. […] Reactions were initiated by the addition of UDPGA and incubations were performed at 37°C in a shaking water bath for 20 min. Incubations were terminated by the addition of 4% acetic acid/96% methanol (0.2 mL) and then centrifuged at 20,500 ×g for 15 min. A 40 μL aliquot of the supernatant fraction was injected into the HPLC column. […] A gradient mobile phase consisting initially of 30 : 70, mobile phase A (acetonitrile) verse mobile phase B (0.5% formic acid/water) was brought to a composition of 90 : 10 in 10 min which was held for 7 min, all at a flow rate of 1 mL/min. Column eluant was monitored by UV absorbance 256 nm. […] The negative controls are the incubation without UDPGA.

Substance: Icariside II
- Ki (recombinant UGT1A4, TFP substrate, mean ± standard error, read-out: Ki against UGT1A4): 1900 ± 300 nM
- IC50 (recombinant human UGT1A4, 50 μM TFP, mean ± SD): 2900 ± 100 nM
